# Experiment: Ratio of kobs in H2O to the kobs in D2O was determined
compound,measurement,value
CP(=O)(OCC(=O)c1ccccc1)Oc1ccc([N+](=O)[O-])cc1 (stereo unspecified),Ratio,1.2

# Source: ChEMBL document CHEMBL1126390, “Reversible modulation of serine protease activity by phosphonate esters” (1992)
